The other results are listed elsewhere or left out.
T1: LIN28A (human?, UniProt Q9H9Z2 1-209)
T1 sequence: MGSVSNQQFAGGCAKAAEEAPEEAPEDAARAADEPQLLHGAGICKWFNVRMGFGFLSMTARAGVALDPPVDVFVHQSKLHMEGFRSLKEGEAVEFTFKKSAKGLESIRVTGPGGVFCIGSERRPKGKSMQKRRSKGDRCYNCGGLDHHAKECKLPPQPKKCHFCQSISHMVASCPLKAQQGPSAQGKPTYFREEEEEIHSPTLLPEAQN

T2: CIRBP (Homo sapiens, UniProt Q14011 1-172)
T2 sequence: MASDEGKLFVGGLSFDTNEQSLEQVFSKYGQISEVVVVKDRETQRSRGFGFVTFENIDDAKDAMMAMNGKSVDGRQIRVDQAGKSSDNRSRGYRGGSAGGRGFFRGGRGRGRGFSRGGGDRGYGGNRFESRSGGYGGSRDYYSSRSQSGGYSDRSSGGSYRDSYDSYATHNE

T3: DHX36 (Homo sapiens, UniProt Q9H2U1 1-1008)
T3 sequence: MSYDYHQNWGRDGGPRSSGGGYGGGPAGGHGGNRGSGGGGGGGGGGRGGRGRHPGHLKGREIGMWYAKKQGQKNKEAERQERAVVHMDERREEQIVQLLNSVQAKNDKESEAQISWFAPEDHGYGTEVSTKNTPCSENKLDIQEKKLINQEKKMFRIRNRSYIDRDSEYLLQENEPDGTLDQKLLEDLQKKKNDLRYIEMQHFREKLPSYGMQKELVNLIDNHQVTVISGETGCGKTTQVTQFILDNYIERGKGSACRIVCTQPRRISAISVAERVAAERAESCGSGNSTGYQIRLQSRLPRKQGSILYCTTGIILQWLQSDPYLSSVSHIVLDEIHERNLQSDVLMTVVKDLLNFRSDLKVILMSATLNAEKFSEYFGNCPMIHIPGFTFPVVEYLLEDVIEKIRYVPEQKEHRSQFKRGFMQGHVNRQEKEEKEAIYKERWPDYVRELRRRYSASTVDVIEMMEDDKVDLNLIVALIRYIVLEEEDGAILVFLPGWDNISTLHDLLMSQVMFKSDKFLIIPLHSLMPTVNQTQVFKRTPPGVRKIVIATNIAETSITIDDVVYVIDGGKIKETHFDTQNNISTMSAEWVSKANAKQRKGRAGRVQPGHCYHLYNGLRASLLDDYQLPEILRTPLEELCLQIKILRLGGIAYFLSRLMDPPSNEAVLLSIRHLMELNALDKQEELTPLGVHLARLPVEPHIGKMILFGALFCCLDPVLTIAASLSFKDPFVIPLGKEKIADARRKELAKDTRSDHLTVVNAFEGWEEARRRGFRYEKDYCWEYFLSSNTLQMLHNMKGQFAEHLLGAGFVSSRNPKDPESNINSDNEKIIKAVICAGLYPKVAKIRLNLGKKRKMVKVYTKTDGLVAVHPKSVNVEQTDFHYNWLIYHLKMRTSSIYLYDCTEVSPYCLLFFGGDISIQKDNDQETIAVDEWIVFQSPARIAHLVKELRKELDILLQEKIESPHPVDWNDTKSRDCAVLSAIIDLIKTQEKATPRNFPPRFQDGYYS

B1: hsa-mir-6724-2_6724-3_6724-1_6724-4 (structured_RNA)
RNA: GGGAGGGAGCAUAUGCGCUAGGGAAUAGGGUGUACGAAGUUUCAGCGGGCUGCCCGGGCCGGUCGACCAGCGCGCCGUAGCUCCGCUGAAGCUUCGUGCAC
B2: hsa-mir-3119-1 (structured_RNA)
RNA: GGGAACACACGGGUCGACUAUCCGCUUGGGUGUACGAAGUUUCAGCUGGCAAAGGGGUAGCUAAACAAUCUAUGUCUUUGCCAGCUGAAGCUUCGUGCAC
B3: hsa-mir-509-2_509-3_509-1 (structured_RNA)
RNA: GGGAUUAGACGGGCCAUCGAAAUGGUUUGGUGUACGAAGUUUCAGCAUCAUGUAUAAUUAAAAAUGAUGCUGAAGCUUCGUGCAC
B4: hsa-mir-302e (structured_RNA)
RNA: GGGAGUAGAGCUAAAUGCGUACAAUACGGGUGUACGAAGUUUCAGCUUCAGUUUCCUUACUGGUAAGCUGAAGCUUCGUGCAC
B5: hsa-mir-1273d (structured_RNA)
RNA: GGGACGUGACACAUGGAUGCAUUAACCUGGUGUACGAAGUUUCAGCCAGUGAGCCAAGAUCGUGCCACUGGCUGAAGCUUCGUGCAC
B6: hsa-mir-5704 (structured_RNA)
RNA: GGGAAAUAAUGGUUGGGCUCUCCACCUGGGUGUACGAAGUUUCAGCAUGCUAAGUCCAUGGGCAAACAUGCUGAAGCUUCGUGCAC
B7: hsa-mir-764 (structured_RNA)
RNA: GGGAUGCUGAACGUGAAAUGAUAGGUGGGGUGUACGAAGUUUCAGCUCCUCCAUGCUUGGAAAAUGCAGGGAGGAGCUGAAGCUUCGUGCAC
B8: hsa-mir-6741 (structured_RNA)
RNA: GGGAGUAAAUCGGGAUUUAGCAGGUUGUGGUGUACGAAGUUUCAGCCCGUGCCCUGGCCACUCAUUCGGGCUGAAGCUUCGUGCAC
B9: hsa-mir-6802 (structured_RNA)
RNA: GGGAACCGCGGCCGUAUACGCUAAUUAAGGUGUACGAAGUUUCAGCUGAAGCCCCGAGAUGCCUCACGUCUUCAGCUGAAGCUUCGUGCAC
B10: hsa-mir-4745 (structured_RNA)
RNA: GGGAAACGUAAUUGCCGGUAGGAUGGUCGGUGUACGAAGUUUCAGCGACGGCGCCCGCCCUGGCCCUGGCGCUGAAGCUUCGUGCAC
B11: hsa-mir-4666a (structured_RNA)
RNA: GGGAAUUUGACCCAUGUACGGAAGUGAAGGUGUACGAAGUUUCAGCUAUGCCUACAAAAUCCCUCCAGACUGGCAUAGCUGAAGCUUCGUGCAC
B12: hsa-mir-890 (structured_RNA)
RNA: GGGACCGCGCUGUACGGAUUACGAUUCGGGUGUACGAAGUUUCAGCGUUGCUUAGAUUACAUGUAACGCUGAAGCUUCGUGCAC
B13: hsa-mir-4660 (structured_RNA)
RNA: GGGAAAGCCCGCUACUAGUUAAAGAUACGGUGUACGAAGUUUCAGCGGAGAAGACUUUUCCUUUCCUCCGCUGAAGCUUCGUGCAC
B14: hsa-mir-548aa-1 (structured_RNA)
RNA: GGGAAGUUCAAGUCGGAUCAAAGUGAAUGGUGUACGAAGUUUCAGCUUUUGCCAUUACUUUUACAGGCAAAAGCUGAAGCUUCGUGCAC
B15: hsa-mir-1204 (structured_RNA)
RNA: GGGAAACCUAUCGAGGCGGAUAAAGACCGGUGUACGAAGUUUCAGCUUAUUUGAGAUGAGUUACAUCUUGGAGGGCUGAAGCUUCGUGCAC
B16: hsa-mir-182 (structured_RNA)
RNA: GGGAACUUUACCUGGACUGAUCCGGUGAGGUGUACGAAGUUUCAGCCACACUGGUGAGGUAACAGGAUCCGGUGGCUGAAGCUUCGUGCAC
B17: hsa-mir-6750 (structured_RNA)
RNA: GGGAAAUAUCCAACGACCCGUCCCAUAGGGUGUACGAAGUUUCAGCGCUGCUGCCCCAGAGGCCCAGCAGGUGUCCAGAACGCUGAAGCUUCGUGCAC
B18: hsa-mir-3923 (structured_RNA)
RNA: GGGAGCCAUUCGAUGCAUGAAGCUCACUGGUGUACGAAGUUUCAGCAGCUUCUUUAUAAGAAGAGGAAACUGCUGAAGCUUCGUGCAC
B19: hsa-mir-5100 (structured_RNA)
RNA: GGGAAUUCAUAUGACCAUCGGCCUAGUUGGUGUACGAAGUUUCAGCUGGAGCUAGACCACAUGGGUUCAGCUGAAGCUUCGUGCAC
B20: hsa-mir-103a-1 (structured_RNA)
RNA: GGGAGGAGCCACUAGAGCUAGUUGUUCUGGUGUACGAAGUUUCAGCGCCUUGUUGCAUAUGGAUCAAGCGCUGAAGCUUCGUGCAC
B21: hsa-mir-2117 (structured_RNA)
RNA: GGGAACCACUCGCUUUAGAGCAUCCUACGGUGUACGAAGUUUCAGCAACAGCAGGAUUGGCUGUAGCUGUUGCUGAAGCUUCGUGCAC
B22: hsa-mir-4434 (structured_RNA)
RNA: GGGAUCGGAGACAUGCGCGAAGAUACCCGGUGUACGAAGUUUCAGCAGAACUUUGGUUUUGCUGAAGCUUCGUGCAC
B23: hsa-mir-4713 (structured_RNA)
RNA: GGGAAGGAUACAGGCAUAGCCUCGCAUAGGUGUACGAAGUUUCAGCCCCAUAAGGGUCGAAUGGGGCUGAAGCUUCGUGCAC
B24: hsa-mir-6814 (structured_RNA)
RNA: GGGAACCGCCGAAACUAGCUAUGUUUGUGGUGUACGAAGUUUCAGCUGCCACCCAGCCCUGCAGAGCCCCUGACUCGCUGAAGCUUCGUGCAC
B25: hsa-mir-1243 (structured_RNA)
RNA: GGGAAGUGGGAAUUAGAAUCGGUACUCCGGUGUACGAAGUUUCAGCAGUGAAAUAAAGGUCCAUCUCCUGCCUAUUUAUUACUUUGCUGCUGAAGCUUCGUGCAC
B26: hsa-mir-6080 (structured_RNA)
RNA: GGGAACACCGCGCUAGGACAUGGUAACCGGUGUACGAAGUUUCAGCGGGGCUGGUUGUCUAGCUGAAGCUUCGUGCAC

Legend:
Assay in all cases: FOREST: bead pull-down of RNA structure library v1, barcode microarray; U1A/LIN28A: 20 mM HEPES pH 7.5, 80 mM KCl, 20 mM NaCl, 10% glycerol, 2 mM DTT, 0.1 ug/uL BSA, 4 C; BG4/CIRBP/DHX36: 10 mM Tris-HCl pH 7.5, 100 mM KCl (or LiCl),; high values mean tight binding
LIN28A = biological target: T1, LIN28A
CIRBP = biological target: T2, CIRBP
DHX36 = biological target: T3, DHX36

| Binder | binding signal (LIN28A) [z-score] | binding signal (CIRBP) [z-score] | binding signal (DHX36) [z-score] |
| --- | --- | --- | --- |
| B1 | -0.178 | -0.226 | 0.867 |
| B2 | -0.2 | -1.53 | -0.847 |
| B3 | -0.176 | -0.000746 | -0.124 |
| B4 | -0.177 | -0.714 | – |
| B5 | -0.213 | -0.253 | -0.969 |
| B6 | -0.199 | 0.414 | -0.599 |
| B7 | -0.174 | 1.41 | 0.385 |
| B8 | -0.194 | -0.146 | 0.65 |
| B9 | -0.203 | -0.621 | -0.594 |
| B10 | -0.205 | 0.0677 | -0.0813 |
| B11 | -0.191 | -1.39 | -0.0281 |
| B12 | -0.184 | 0.135 | -1.04 |
| B13 | -0.19 | 0.522 | -1.08 |
| B14 | -0.187 | 1.57 | -0.0537 |
| B15 | -0.19 | 0.35 | -0.617 |
| B16 | -0.199 | -1.17 | -1.09 |
| B17 | -0.213 | -1.59 | -0.812 |
| B18 | -0.179 | -0.714 | -0.804 |
| B19 | -0.174 | 0.0704 | -1.05 |
| B20 | -0.176 | -0.803 | 0.379 |
| B21 | -0.208 | -0.12 | -0.0851 |
| B22 | -0.199 | -1.65 | -1.4 |
| B23 | -0.2 | -0.426 | -1.19 |
| B24 | -0.218 | -0.133 | 0.927 |
| B25 | -0.213 | -1.76 | -0.612 |
| B26 | -0.193 | -0.359 | -0.874 |

— article PMC7723054
